Earlier results, collected in patent publication US20220127568A1, “COMPOSITIONS AND METHODS FOR GENERATING HAIR CELLS BY INHIBITING EPIGENETIC TARGETS” (Frequency Therapeutics, Inc., priority 2019, published 2022).

Protein sequences, listed by entry. Tags and fused reporters are not part of them.
UniProt Q15910, whole entry, species assumed: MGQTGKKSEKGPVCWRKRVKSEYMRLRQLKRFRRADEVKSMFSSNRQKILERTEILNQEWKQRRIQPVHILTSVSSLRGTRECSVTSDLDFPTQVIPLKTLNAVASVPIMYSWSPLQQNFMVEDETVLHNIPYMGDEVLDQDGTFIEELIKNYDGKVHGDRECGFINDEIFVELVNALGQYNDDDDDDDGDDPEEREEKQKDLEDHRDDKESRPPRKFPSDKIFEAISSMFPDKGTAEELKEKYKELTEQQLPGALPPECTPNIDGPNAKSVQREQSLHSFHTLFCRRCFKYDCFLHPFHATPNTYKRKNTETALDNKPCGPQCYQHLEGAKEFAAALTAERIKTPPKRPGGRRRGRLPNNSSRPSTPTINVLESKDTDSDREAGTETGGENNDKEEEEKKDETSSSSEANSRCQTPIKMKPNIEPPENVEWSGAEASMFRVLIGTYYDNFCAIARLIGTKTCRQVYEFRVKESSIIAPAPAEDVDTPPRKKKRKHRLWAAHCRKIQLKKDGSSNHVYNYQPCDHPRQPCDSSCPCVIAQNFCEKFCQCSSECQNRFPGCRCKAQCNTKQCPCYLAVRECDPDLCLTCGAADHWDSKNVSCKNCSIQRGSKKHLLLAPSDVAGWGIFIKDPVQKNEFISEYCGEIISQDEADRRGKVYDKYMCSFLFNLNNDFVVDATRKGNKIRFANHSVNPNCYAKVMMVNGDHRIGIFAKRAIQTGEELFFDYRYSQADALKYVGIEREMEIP

Columns and labels:
EZH2 [1] = biological target: T1, EZH2 (Homo sapiens, UniProt Q15910); details: Table 7, EZH2 (incl. EED, SAH-hydrolase) inhibitors; read-out: pKi or IC50 (converted); cited from earlier work
EZH2 [2] = biological target: T1, EZH2; details: literature cell potency, EZH2 inhibitors; cited from earlier work

SMILES: CCN(c1cc(C#CCN2CCOCC2)cc(C(=O)NCc2c(C)cc(C)[nH]c2=O)c1C)[C@H]1CC[C@H](N(C)CCOC)CC1 [EPZ-011989]
- IC50 (EZH2 [1]): < 3 nM

SMILES: CCCc1cc(C)[nH]c(=O)c1CNC(=O)c1cc(-c2ccnc(N3CCN(C)CC3)c2)cc2c1cnn2C(C)C [GSK343]
- IC50 (EZH2 [1]): 1.2 nM

SMILES: Cc1cc(C)c(CNC(=O)c2cc(Cl)c3c(c2C)O[C@@](C)([C@H]2CC[C@H](N(C)C)CC2)O3)c(=O)[nH]1 [valemetostat]
- Lit Cell Poten (EZH2 [2]): 25 to 250 nM
